Data from patent US20160168185A1.

Columns and labels:
[1] = Human liver microsome stability assay; assay type: in vitro ADME; details: 0.5 mg/mL microsomes, 37° C.
[2] = Human plasma stability assay

CC(C)N(CCCNC(=O)Nc1ccc(C(C)(C)C)cc1)C[C@H]1O[C@@H](n2cnc3c(N)ncnc32)[C@H](O)[C@@H]1O [SYC-522]
unchanged after 1 h in human liver microsomes [1]: 50%
stability in human plasma in words [2]: reasonably stable
remaining after 1 h in human plasma ([2]; 5 μM, 37° C., 1 h): 90%
